Earlier results in article PMC10080908.

Chains of the proteins cited; added tags and fusions are not shown. Residues count along the entry.
UniProt Q6ZNA4, 939-986: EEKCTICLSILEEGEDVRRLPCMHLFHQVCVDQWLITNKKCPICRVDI
UniProt P62837, whole entry: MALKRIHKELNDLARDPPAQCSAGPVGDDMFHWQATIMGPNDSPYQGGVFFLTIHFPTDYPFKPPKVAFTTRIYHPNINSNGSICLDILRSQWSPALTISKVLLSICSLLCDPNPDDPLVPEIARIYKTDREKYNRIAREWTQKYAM

Target: RNF111 RING (Homo sapiens) (UniProt Q6ZNA4)
Settings: cited from earlier work

In the case of UBE2D2 (from UniProt P62837), the pKd is listed as 6.00.

pKd: −log10 of the molar value.
